# Assays:
# Sequences of proteins named here, by UniProt entry; tags and fusion partners are left off.
# UniProt P40881, whole entry, looked up: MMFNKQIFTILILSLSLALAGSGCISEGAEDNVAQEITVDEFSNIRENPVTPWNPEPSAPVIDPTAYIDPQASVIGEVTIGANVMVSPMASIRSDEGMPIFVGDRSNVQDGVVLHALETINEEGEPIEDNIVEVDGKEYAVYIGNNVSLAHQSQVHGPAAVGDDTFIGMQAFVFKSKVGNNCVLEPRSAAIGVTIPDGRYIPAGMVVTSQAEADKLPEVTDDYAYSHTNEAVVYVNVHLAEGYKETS
# UniProt P00915, whole entry, looked up: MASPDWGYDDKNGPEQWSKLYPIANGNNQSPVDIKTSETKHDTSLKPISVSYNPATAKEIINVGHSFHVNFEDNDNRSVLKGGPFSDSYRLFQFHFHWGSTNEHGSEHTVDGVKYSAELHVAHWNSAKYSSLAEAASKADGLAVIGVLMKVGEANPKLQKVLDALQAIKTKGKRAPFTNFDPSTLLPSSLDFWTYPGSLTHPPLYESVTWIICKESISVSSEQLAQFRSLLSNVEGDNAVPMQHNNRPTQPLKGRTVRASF
# UniProt P22748, whole entry, looked up: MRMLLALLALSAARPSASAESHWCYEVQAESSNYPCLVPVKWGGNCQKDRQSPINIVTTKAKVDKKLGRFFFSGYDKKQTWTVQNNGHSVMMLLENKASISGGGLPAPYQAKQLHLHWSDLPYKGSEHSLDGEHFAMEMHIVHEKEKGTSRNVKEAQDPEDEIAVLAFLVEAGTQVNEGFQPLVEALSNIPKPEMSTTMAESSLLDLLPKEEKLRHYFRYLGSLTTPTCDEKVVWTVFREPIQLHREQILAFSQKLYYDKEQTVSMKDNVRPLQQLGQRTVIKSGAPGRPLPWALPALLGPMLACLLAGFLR
# Carbonic anhydrase 2 = Carbonic anhydrase 2 (Homo sapiens, UniProt P00918); assay: Inhibitory constant against carbonic anhydrase II
# Carbonic anhydrase = Carbonic anhydrase (Methanosarcina thermophila, UniProt P40881)
# Carbonic anhydrase 1 = Carbonic anhydrase 1 (Homo sapiens, UniProt P00915)
# Carbonic anhydrase 4 = Carbonic anhydrase 4 (Homo sapiens, UniProt P22748); assay: Inhibitory constant against carbonic anhydrase IV
SMILES,Ki (Carbonic anhydrase 2),Ki (Carbonic anhydrase),Ki (Carbonic anhydrase 1),Ki (Carbonic anhydrase 4)
C#[N+][O-],30 µM,90 µM,0.7 µM,30 µM
[N-]=[N+]=N,,,1.2 µM,

# Source: ChEMBL document CHEMBL1137924, “Carbonic anhydrase inhibitors. Inhibition of the beta-class enzyme from the methanoarchaeon Methanobacterium thermoautotrophicum (Cab) with anions” (Bioorg Med Chem Lett, 2004)
